In patent US20240350491A1, “METHODS AND COMPOSITIONS FOR IMMUNE CONTROL THROUGH DICKKOPF-1” (Baylor College of Medicine, priority 2021, published 2024):

Key:
platelet-depleted mice = type: in vivo
Description: Bronchoalveolar lavage further retrieved gross blood from mouse lungs that contained abundant hemoglobin (FIG. 6F).
Thus, normal and platelet-depleted mice were challenged intranasally with synthetic candidalysin, which alone is sufficient to induce allergic airway disease (FIG. 8). […] Candidalysin induced more than a 2-fold increase in plasma Dkk-1 in platelet sham-depleted mice but had no effect on plasma Dkk-1 in mice almost entirely deficient in circulating platelets (FIG. 11H).
Wildtype mice were give 2 μg/g of platelet depleting antibody intraperitoneally (R300, Emfret Analytics, Wurzburg, Germany) as described (Lam et al., 2011). Depletion of platelets from mice in the allergic airway disease model was carried out with intraperitoneal injection of the antibody with each intranasal challenge, 8 times over 2 weeks as described above.

host cells = conditions: Moyes et al., 2016; cited from earlier work
Human platelets = test: Platelet activation and binding to candidalysin (flow cytometry); type: cell-based; conditions: acute activation; 10 or 20 μM
Method: Platelets (1×10^9/mL) were pretreated with anti-GP1bα (Clone AK2 at 10 μg/mL, Invitrogen, Carlsbad, CA) or A1A2A3 von Willebrand factor tridomain protein for 1 h at room temperature and then incubated with untagged, Alexafluor-647-tagged candidalysin (10 or 20 μM), or scrambled peptide control for 1 h at room temperature. Activation was assessed by CD62P upregulation (304910, Biolegend, San Diego, CA) and AF-647-candidalysin binding to platelets was assessed by flow cytometry (Nagy Jr et al., 2013).
Alternatively, platelets were treated with biotinylated candidalysin (10 or 20 μM) or scrambled peptide control (20 μM) for 1 hour, washed with CGS buffer, and stained using ALEXA FLUOR® 647-tagged streptavidin for 30 minutes.

Compound: CC[C@H](C)[C@H](NC(=O)CNC(=O)[C@H](CCSC)NC(=O)[C@@H](NC(=O)[C@@H](NC(=O)CNC(=O)[C@@H](NC(=O)[C@@H](NC(=O)[C@@H](N)CO)[C@@H](C)CC)[C@@H](C)CC)[C@@H](C)CC)[C@@H](C)CC)C(=O)N[C@@H](CC(C)C)C(=O)NCC(=O)N[C@@H](CC(N)=O)C(=O)N[C@H](C(=O)N1CCC[C@H]1C(=O)N[C@@H](CCC(N)=O)C(=O)N[C@H](C(=O)N[C@H](C(=O)N[C@@H](CCC(N)=O)C(=O)N[C@H](C(=O)N[C@H](C(=O)N[C@@H](CCSC)C(=O)N[C@@H](CO)C(=O)N[C@H](C(=O)N[C@H](C(=O)N[C@@H](CCCCN)C(=O)N[C@@H](C)C(=O)N[C@@H](Cc1ccccc1)C(=O)N[C@@H](CCCCN)C(=O)NCC(=O)N[C@@H](CC(N)=O)C(=O)N[C@@H](CCCCN)C(=O)O)C(C)C)[C@@H](C)CC)[C@@H](C)CC)[C@@H](C)CC)[C@@H](C)CC)C(C)C)[C@@H](C)CC [candidalysin]
- adverse events in thrombocytopenic mice (platelet-depleted mice; repeated candidalysin challenge, data not shown): epistaxis and one died
- mortality or illness (platelet-depleted mice; single challenge into airways of platelet-depleted mice): no mortality or apparent illness
- concentrations at which candidalysin acutely induces lysis of host cells (host cells): above 20 μM
- platelet lysis (Human platelets): without inducing lysis
